These results are taken from patent US8470352B2, “Magnesium compositions and uses thereof for metabolic disorders” (Magceutics, Inc., priority 2007, dated 2013).

Data set [1] is described as follows: Magnesium absorption rate in rats (urine and feces magnesium by ICP-AES, linear regression). Particulars: Examples 5 and 6, gluconate in skim milk or 5 weight percent lactose water, chloride and threonate in water. As to the method:
Fifty 3-month old, male Sprague Dawley (SD) rats were divided into five groups of ten rats. Rats of this age and older are considered adult. Each of the rats was placed in a separate metabolic cage equipped with urine- and feces-collecting wells. All of the rats were maintained in a temperature-controlled room (22° C. to 25° C.) with a dark period from 08:00 pm to 08:00 am daily. From day 1 through day 3, each rat was fed daily 15 g of magnesium-free food and de-ionized water. […] The medium was skim milk for Composition 1 and Group 1, milk prepared from powdered milk, by diluting the powdered milk with water to obtain a composition like that of skim milk, for Composition 2 and Group 2, 1% milk cream in water for Composition 3 and Group 3, water comprising 5 weight percent lactose for Composition 4 and Group 4, and water for the Control Composition and Control Group. […]
From day 4 through day 10, urine from each rat was collected daily. The collected urine from each rat was then pooled together and the total volume of the pooled urine from each rat was recorded. The pooled urine from each rat, in an amount of […], was analyzed for magnesium content using an inductively coupled plasma-atomic emission spectrometer (ICP-AES). […] The pooled feces from each rat, in an amount of 0.5 g, were analyzed for magnesium content using an ICP-AES. […]

The conditions of data set [2]: compared with magnesium lactate and magnesium citrate; cited from earlier work.

In the case of magnesium gluconate, the “magnesium absorption rate at relatively low dosage” value in data set [1] is recorded as “suitable”. For the same substance, in data set [2], the “solubility in water or an aqueous medium” value is given as “comparatively better than that associated with either magnesium lactate or magnesium citrate”.
